The values below are quoted from earlier work in US9956304B2, “Contrast agents, methods for preparing contrast agents, and methods of imaging” (GEORGIA STATE UNIVERSITY RESEARCH FOUNDATION, INC., priority 2012, dated 2018).

By UniProt entry, the sequences of proteins in these tests, tags left out. Where a name states a change or a piece, a line headed by the entry shows the natural chain unless it says otherwise.
UniProt P30550: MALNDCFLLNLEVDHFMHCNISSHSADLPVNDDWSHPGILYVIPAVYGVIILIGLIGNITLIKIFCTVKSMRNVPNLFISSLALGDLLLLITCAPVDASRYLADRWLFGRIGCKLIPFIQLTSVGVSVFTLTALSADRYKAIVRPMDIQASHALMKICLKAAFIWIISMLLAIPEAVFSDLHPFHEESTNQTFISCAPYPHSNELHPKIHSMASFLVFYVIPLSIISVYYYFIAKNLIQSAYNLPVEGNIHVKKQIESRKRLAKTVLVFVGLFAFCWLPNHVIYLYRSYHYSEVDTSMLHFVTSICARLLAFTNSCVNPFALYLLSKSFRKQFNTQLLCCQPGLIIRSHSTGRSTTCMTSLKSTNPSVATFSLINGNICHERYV
UniProt P07492: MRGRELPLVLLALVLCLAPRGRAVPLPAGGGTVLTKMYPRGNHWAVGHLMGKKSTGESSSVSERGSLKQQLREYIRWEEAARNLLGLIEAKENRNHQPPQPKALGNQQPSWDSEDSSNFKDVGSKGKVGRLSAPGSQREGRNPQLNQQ

The target in the data set is GRPR (Homo sapiens, UniProt P30550). As to conditions: read-out: binding affinity to GRPR; cited from earlier work.

Regarding “GRP: gastrin release peptide, human homolog of bombesin (VPLPAGGGTVLTKMYPRGNHWAVGHLM; Gastrin-releasing peptide; UniProt P07492 24-50, looked up)”, the Kd is around 6.6 nM.
